Reference: patent publication US7465751B2 (priority 2002, dated 2008)

System: isolated rat bladder
Test: tissue or blood
Settings: read-out: Functional Assay pKB (converted)

SMILES: Cc1ccc(O)c([C@H](CCN(C(C)C)C(C)C)c2ccccc2)c1 [Tolterodine]
- Kb: 1.29 nM
